Reference: PubChem BioAssay AID777 (Sanford-Burnham Center for Chemical Genomics, 2007)
The list shows a part of the results, in another mix than the full data. Active and inactive are the calls of the source.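 Rule for the calls: active = blocking of liver enzyme CYP2C9 beyond about 50% at 5 µM (limit read from the data); inactive = the rest.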

Sequences of proteins named here, by UniProt entry; tags and fusion partners are left off.
UniProt P11712, whole entry, looked up: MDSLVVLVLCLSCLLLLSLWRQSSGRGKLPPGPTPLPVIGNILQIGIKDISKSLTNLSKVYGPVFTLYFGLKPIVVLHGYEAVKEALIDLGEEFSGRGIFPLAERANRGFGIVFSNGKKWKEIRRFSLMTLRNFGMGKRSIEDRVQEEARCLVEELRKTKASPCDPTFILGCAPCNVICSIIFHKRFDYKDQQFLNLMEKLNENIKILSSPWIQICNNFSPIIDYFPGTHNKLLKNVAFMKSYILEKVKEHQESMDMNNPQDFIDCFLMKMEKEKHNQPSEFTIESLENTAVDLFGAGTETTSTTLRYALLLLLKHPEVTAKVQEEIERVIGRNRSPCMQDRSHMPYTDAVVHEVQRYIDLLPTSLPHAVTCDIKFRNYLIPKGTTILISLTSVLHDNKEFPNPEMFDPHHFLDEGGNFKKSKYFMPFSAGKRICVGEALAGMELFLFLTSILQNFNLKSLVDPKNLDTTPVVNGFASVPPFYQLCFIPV

The compounds below were run against Cytochrome P450 2C9 (Homo sapiens) (UniProt P11712) (assay: blockers of cytochrome P450 2C9 activity – biochemical, luminescence, ADME assay, primary screen (AID 777)). Settings: CYP2C9 Supersomes, luciferin-H conversion, at 5 µM, stronger effect = higher value.

SMILES | inhibition
O=P1(Nc2ncccn2)COc2ccccc2OC1 | inactive: -4.9%
Cc1ccc(OCC(=O)OC2CN3CCC2CC3)cc1 (stereo not given) | inactive: -5.3%
O=P1(Nc2ccc(Br)cn2)COc2ccccc2OC1 | inactive: 40.8%
Cc1nn(-c2ccccc2)c2c1P(=O)(N1CCOCC1)N(C)C(c1ccccc1)=N2 (stereo not given) | inactive: 5.2%
O=P1(Nc2ccccn2)COc2ccccc2OC1 | inactive: 11.7%
Clc1n[nH]nc1-c1nn[nH][15n]1 | inactive: 3.4%
Cc1cccc(OCC(=O)OC2CN3CCC2CC3)c1 (stereo not given) | inactive: 6.1%
O=[N+]([O-])c1ccc2c(c1)nnn2O | inactive: -22.5%
CCOP1(=S)c2c(C)nn(CCC#N)c2N=C(c2ccc(F)cc2)N1C (stereo not given) | active: 54.5%
O=P(Nc1nccs1)(c1ccccc1)c1nc2ccccc2s1 (stereo not given) | active: 59.5%
CCOP1(=S)c2c(C)nn(CCC#N)c2N=C(c2ccccc2F)N1C (stereo not given) | active: 62.8%
CCN(CC)C(=S)SC(NC=O)C(Cl)(Cl)Cl (stereo not given) | inactive: -14.2%
O=C(OC1CN2CCC1CC2)C12CC3CC(CC(C3)C1)C2 (stereo not given) | inactive: -22.2%
COP1(=S)c2c(C)nn(CCC#N)c2N=C(c2ccc(F)cc2)N1C (stereo not given) | inactive: 29.2%
O=C(COc1ccccc1)OC1CN2CCC1CC2 (stereo not given) | inactive: -8%
CC1CCN(C(=O)Oc2c(Cl)cc(Cl)c3cccnc23)CC1 | inactive: -2.6%
O=[N+]([O-])c1cccc2n[nH]nc12 | inactive: -17.2%
CC(=O)N1C2C3N(C(C)=O)C1C1N(C(C)=O)C(C(N1C(C)=O)N3C(C)=O)N2C(C)=O | inactive: 9.9%
CCc1nc2c(n1)c1c(non1O)c1c2no[n+]1[O-] | inactive: 20.9%
CC(C)CC(=O)NC(Sc1ccc(Cl)cc1)C(Cl)(Cl)Cl (stereo not given) | active: 52.4%
Cc1c2non([O-])c-2c(C)[n+](=O)[n+]1[O-] | inactive: 1.3%
Oc1ccccc1CNc1ccccn1 | inactive: -5.4%
CCOP(=O)(Nc1ccccc1)OCC | inactive: -5.8%
COC(=O)c1cc2c(s1)N=C(c1ccccc1)N(C)P2(=O)N1CCOCC1 (stereo not given) | inactive: 11.6%
CCC(=O)N1C2C3N(C(=O)CC)C1C1N(C(=O)CC)C(C(N1C(=O)CC)N3C(=O)CC)N2C(=O)CC | inactive: 40.1%
CCOC(=O)NC(Sc1ccccc1)C(Cl)(Cl)Cl (stereo not given) | inactive: 32.4%
O=P1(Nc2nc3ccc(Cl)cc3s2)COc2ccccc2O1 (stereo not given) | inactive: 38.9%
O=P(Nc1nccs1)(c1ccccc1)c1ccccc1 | inactive: 26.3%
c1nnnn1CCn1cnnn1 | inactive: -5.9%
O=C(OC1CN2CCC1CC2)c1cccc(Cl)c1 (stereo not given) | inactive: -9.9%
